Laboratory results taken from patent publication US20250026750A1, “SULFOXIMINE-CONTAINING ATR INHIBITOR COMPOUND” (Chia Tai Tianqing Pharmaceutical Group Co., Ltd., priority 2021, published 2025).

Protein sequences, listed by entry. Tags and fused reporters are not part of them.
UniProt Q13535, whole entry: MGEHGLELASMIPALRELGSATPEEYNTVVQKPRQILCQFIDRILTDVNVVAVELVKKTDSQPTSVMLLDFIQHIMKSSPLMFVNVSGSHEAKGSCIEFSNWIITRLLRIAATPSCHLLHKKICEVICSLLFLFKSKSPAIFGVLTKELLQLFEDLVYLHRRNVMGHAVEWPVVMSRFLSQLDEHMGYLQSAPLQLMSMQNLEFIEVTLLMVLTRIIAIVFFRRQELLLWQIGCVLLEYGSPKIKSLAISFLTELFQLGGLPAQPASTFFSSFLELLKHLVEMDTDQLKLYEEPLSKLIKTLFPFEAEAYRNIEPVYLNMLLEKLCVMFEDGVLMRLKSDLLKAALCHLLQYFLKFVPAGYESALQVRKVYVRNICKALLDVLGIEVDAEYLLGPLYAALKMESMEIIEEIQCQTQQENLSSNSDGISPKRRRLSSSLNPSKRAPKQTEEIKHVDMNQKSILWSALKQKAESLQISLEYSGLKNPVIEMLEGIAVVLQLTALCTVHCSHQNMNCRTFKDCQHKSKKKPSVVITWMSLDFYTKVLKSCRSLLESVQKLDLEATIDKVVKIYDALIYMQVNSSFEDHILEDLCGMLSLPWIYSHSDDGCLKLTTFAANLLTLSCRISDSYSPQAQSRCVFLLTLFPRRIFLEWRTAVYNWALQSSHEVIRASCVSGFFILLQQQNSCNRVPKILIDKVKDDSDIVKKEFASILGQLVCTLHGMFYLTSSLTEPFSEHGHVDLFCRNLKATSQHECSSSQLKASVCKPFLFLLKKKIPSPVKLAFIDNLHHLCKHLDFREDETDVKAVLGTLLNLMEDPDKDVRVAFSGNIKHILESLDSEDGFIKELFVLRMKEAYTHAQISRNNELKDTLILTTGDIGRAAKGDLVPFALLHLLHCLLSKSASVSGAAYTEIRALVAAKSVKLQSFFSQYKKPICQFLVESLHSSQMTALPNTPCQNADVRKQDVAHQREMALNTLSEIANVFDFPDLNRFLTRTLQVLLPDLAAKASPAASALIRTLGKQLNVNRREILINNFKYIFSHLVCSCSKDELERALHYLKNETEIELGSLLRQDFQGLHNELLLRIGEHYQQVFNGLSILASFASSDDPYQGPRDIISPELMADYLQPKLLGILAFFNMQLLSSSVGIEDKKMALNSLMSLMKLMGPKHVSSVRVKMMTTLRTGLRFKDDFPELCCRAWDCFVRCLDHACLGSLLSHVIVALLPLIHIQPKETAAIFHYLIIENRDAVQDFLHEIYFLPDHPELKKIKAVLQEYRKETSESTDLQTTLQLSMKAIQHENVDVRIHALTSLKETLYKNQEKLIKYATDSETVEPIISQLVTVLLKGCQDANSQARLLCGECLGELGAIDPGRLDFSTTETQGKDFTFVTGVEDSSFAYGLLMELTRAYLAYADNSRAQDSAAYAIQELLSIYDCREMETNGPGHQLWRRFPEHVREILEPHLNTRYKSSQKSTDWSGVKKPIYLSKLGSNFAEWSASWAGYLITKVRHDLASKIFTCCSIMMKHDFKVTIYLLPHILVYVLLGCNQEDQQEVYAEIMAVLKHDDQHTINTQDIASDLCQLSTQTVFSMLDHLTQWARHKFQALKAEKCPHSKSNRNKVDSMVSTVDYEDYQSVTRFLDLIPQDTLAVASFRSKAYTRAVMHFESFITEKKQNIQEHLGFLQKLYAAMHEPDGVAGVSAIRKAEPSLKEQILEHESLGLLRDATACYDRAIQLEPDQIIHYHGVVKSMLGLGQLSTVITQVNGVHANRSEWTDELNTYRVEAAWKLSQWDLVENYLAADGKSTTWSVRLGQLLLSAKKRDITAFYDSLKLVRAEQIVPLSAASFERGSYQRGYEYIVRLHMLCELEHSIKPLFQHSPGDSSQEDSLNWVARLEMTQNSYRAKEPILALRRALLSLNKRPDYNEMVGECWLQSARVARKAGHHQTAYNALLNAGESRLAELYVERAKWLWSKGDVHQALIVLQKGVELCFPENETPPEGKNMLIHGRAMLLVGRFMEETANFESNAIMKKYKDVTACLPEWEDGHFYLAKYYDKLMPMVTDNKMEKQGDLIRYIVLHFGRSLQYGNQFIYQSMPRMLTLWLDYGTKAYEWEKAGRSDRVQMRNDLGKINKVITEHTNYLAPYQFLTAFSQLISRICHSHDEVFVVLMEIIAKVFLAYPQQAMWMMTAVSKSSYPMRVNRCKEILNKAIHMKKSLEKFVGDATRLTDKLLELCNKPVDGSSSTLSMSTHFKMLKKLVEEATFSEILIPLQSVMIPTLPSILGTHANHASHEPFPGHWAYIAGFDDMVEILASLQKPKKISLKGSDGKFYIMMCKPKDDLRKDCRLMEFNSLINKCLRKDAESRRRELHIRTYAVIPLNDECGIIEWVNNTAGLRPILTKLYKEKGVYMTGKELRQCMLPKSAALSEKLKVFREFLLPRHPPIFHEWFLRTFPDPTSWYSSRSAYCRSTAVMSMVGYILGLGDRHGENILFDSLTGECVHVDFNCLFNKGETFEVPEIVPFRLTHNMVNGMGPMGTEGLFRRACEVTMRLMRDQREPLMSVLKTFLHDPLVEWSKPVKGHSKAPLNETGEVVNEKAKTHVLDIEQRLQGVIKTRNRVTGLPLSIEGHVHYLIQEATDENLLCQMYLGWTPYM
UniProt Q8WXE1, whole entry partner: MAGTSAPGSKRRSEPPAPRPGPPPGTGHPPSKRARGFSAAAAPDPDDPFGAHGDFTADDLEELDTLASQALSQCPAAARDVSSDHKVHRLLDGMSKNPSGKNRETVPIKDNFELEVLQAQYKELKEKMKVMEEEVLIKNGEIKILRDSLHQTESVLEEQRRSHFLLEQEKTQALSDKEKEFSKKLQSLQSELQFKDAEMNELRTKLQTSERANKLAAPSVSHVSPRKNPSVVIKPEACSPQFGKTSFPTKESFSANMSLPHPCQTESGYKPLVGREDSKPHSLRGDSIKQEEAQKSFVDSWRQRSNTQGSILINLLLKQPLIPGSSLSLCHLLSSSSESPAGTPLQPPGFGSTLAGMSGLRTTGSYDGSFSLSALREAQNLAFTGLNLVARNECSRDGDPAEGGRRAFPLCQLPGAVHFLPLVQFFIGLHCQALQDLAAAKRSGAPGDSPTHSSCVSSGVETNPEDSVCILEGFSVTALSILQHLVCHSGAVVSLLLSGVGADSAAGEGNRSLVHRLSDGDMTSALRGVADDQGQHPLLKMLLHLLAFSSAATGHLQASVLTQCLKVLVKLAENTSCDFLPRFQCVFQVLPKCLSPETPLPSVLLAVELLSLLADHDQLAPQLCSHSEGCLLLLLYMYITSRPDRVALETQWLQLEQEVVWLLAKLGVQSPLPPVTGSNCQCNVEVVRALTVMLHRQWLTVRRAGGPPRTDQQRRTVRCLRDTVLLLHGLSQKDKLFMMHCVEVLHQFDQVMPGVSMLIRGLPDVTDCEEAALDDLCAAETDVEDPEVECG

Experiments:
ATR kinase = ATR kinase (Homo sapiens (Human), UniProt Q13535); assay: Screening for in vitro inhibitory activity against ATR kinase; conditions: read-out: IC50 (nM), inhibitory activity against ATR kinase; 10 μM ATP, 0.1 μM U Light-poly GT substrate
Experimental: A 50 ng/μL ATR stock solution was diluted with a kinase buffer (50 mM HEPES, 10 mM MgCl2, 2 mM DTT, 1 mM EGTA, 0.01% Tween 20), and 6 μL of 1.67×, 0.0835 ng/μL working solution was added to each well (final concentration: 0.05 ng/μL). Different compounds dissolved in DMSO were added to wells using a nanoliter pipettor, such that the final concentrations of the compounds were 1000 nM-0.24 nM and the concentrations in positive wells were 100 nM-0.024 nM (4-fold gradient, 7 concentrations in total). Meanwhile, a blank control well (containing no enzyme) and a negative control well (containing enzyme, with the vehicle DMSO added) were set. After the enzyme had reacted with the compound or vehicle for 30 min, a 5×, 50 μM ATP (final concentration: 10 μM) prepared with the kinase buffer and a 5×, 0.5 μM substrate (final concentration: 0.1 μM, U Light-poly GT) were 1:1 mixed, and the mixture was added to wells at 4 μL/well. After the plate was sealed with a sealing film and the plate was incubated at room temperature for 2 h, 5 μL of 4×, 40 mM EDTA (final concentration: 10 mM) was added to each well. […] Plate reading was performed on a PE instrument (excitation: 320 or 340 nm; emission: 665 nm), and four-parameter fitting and IC50 calculations were performed. […]

[1] = In vitro liver microsomal stability; conditions: human liver microsomes, NADPH, 37° C.
Experimental: A 200-μL final incubation system contained 20 μL of liver microsomes (protein concentration: 5 mg/mL), 20 μL of NADPH+MgCl2, 2 μL of a substrate, and 158 μL of PBS buffer. The proportion of the organic solvent was 1%. The assay was performed in duplicate (0.2 mL each) for each species. A 180-μL mixture of substrate and enzyme was prepared in each tube. After the mixture and NADPH were pre-incubated at 37° C. for 5 min, 20 μL of NADPH+MgCl2 was added and mixed. 50-μL samples were taken at 0, 15 and 60 min, and the reactions were stopped using ice-cold acetonitrile containing an internal standard.
50-μL incubated samples were taken, and 300 μL of internal standard-containing acetonitrile was added for precipitation. After 5 min of vortexing and shaking, centrifugation (13,000 rpm, 20° C.) was performed for 10 min. 80 μL of the supernatant was added to a 96-well plate and diluted with 80 μL of ultrapure water, and 1 μL of the dilution was injected for LC-MS/MS analysis.

[2] = Pharmacokinetic evaluation of compounds in mice; conditions: ICR mice
Experimental: ICR mice, weighing 18-22 g, were randomized into 4 groups of 9 after 3-5 days of acclimatization, and were administered intragastrically (IG) a test compound at a dose of 10 mg/kg and intravenously (IV) a test compound at a dose of 1 mg/kg.
The test animals (ICR mice) were fasted for 12 h before the administration and given food 4 h after the administration, and they were given ad libitum access to water before, during and after the experiment.
Orbital blood samples of about 0.1 mL were collected at 15 min, 30 min, 1 h, 2 h, 3 h, 4 h, 6 h, 8 h, 10 h and 24 h after the intragastric administration. Orbital blood samples of about 0.1 mL were collected at 5 min, 10 min, 30 min, 1 h, 2 h, 4 h, 6 h, 8 h, 10 h and 24 h after the intravenous administration. The blood sample collection was performed at 3-4 time points for each mouse, 3 mice/per time point. The collected whole blood was placed in EDTA-K2-containing centrifuge tubes and stored at 4° C., and, within 1 h, was centrifuged at 4° C. at 4000 rpm for 10 min to separate plasma. All plasma samples were collected and immediately stored at −20° C. for testing. 30 μL of a plasma sample to be tested and a standard-curve sample were collected, and 300 μL of an acetonitrile solution containing an internal standard (20 ng/mL diazepam) was added and well mixed by 5 min of shaking. The mixture was centrifuged at 13,000 rpm for 10 min, and 80 µL of the supernatant was collected and diluted with 80 μL of ultrapure water. After well mixing, 2 μL of the dilution was collected for liquid chromatography-mass spectrometry analysis, and pharmacokinetic parameters were calculated.

[3] = plasma, IG 10 mg/kg / IV 1 mg/kg study

Structure (SMILES): C[C@@H]1COCCN1c1cc(N=S(C)(=O)C2CC2)c2cnn(-c3ccn[nH]3)c2n1 (single isomer, unassigned)
- IC50 (ATR kinase): < 50 nM
- Human liver microsome (Residual % at 60 min) [1]: 94.14%
- IG half-life t1/2 ([2]; intragastric 10 mg/kg): 3.3 h
- Area under plasma concentration-time curve AUC0-last [2, 3]: 10311 ng·h/mL
- Peak concentration Cmax [2, 3]: 4633 ng/mL
- Tissue distribution Vd ([2]; IG 10 mg/kg / IV 1 mg/kg study): 1.38 L/kg
- Absolute bioavailability F ([2]; IG 10 mg/kg vs IV 1 mg/kg): 81%
